In ChEMBL document CHEMBL1151472, “In vitro interactions between tacrolimus and azoles against Candida albicans determined by different methods” (2008) one finds Activity data, which are given here for 1 molecule.

Assay [1] concerns Candida albicans. Kind of assay: Antimicrobial activity against azole-susceptible Candida albicans isolate CA14 assessed as log reduction in colony count at 10 ug/ml co-treated with calcineurin signaling inhibitor tacrolimus after 48 hrs by time killing test. Format: functional.
In assay [2] the test system is Candida albicans. In words: Antimicrobial activity against azole-resistant Candida albicans isolate CA10 assessed as log reduction in colony count at 10 ug/ml co-treated with calcineurin signaling inhibitor tacrolimus after 48 hrs by time killing test. Format: functional.

For the molecule `OC(Cn1cncn1)(Cn1cncn1)c1ccc(F)cc1F` [FLUCONAZOLE], the Activity in the assay on Candida albicans [1] was 1.98; in the assay with Candida albicans [2] it was 2.03.
